# Measured properties of organic chemicals

Data: OPERA 2.9 data sets, kmansouri/OPERA on GitHub.

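The OPERA project collected these measurements from public sources as training and test data for property models. One number stands for a compound and property, with no spread given. How each value was measured is not recorded, so precision varies. A value may pool stereoisomers or salt forms, and the file does not say which form was measured. Some entries may be limits or estimates that an upstream database listed as plain numbers.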

The melting point is given in degrees Celsius. The boiling point refers to atmospheric pressure (760 mmHg), by the definition of the set. The octanol-water partition coefficient is given as log10; larger values mean a more lipophilic compound. Solubility in water is on a log10 molar scale (set defined at 25 °C). Vapor pressure is log10 of mmHg; the set covers 15 to 30 °C, mostly 20 to 25 °C. Cells with "n/a" have no entry in this list.

| mp (°C) | BP (°C) | log Kow | water solubility (log10 mol/L) | log VP (log10 mmHg) | structure (SMILES) |
|---|---|---|---|---|---|
| 11.7 | n/a | 1.976 | -1.773 | n/a | c1scc2c1OCCO2 |
| n/a | n/a | n/a | -3.843 | -4.727 | CCCCCCCCCc1ccc(OCC(=O)O)cc1 |
| n/a | n/a | 3.16 | -4.355 | n/a | SCCSCC(CS)SCCS (stereo not drawn) |
| n/a | n/a | n/a | -2.925 | -1.292 | CC/C=C\CCOC(=O)C1CC1 |
| n/a | n/a | 5.65 | -4.976 | -3.348 | CC(=O)OCC1CCC=C(CCC=C(C)C)C1 (stereo not drawn) |
| 167.5 | n/a | -0.44 | n/a | -2.18 | Cl.Cn1sccc1=O |
| n/a | n/a | n/a | -2.25 | -7.644 | COc1cc(C)c(Cc2cnc(N)nc2N)cc1OC |
| -11 | 222 | n/a | n/a | n/a | C=C(C)[C@H]1CC[C@H](C)C(=O)C1 |
| -8.15 | n/a | 2.3 | -3.919 | -6.244 | c1cc(OCC2CO2)c2ccc(OCC3CO3)cc2c1 (stereo not drawn) |
| 71 | n/a | 4.7 | -6.897 | -4.34 | CCC[C@H]1CC[C@H]([C@H]2CC[C@H](C=O)CC2)CC1 |
| 63 | n/a | n/a | -7.431 | -6.035 | Brc1ccc(Oc2ccc(Br)c(Br)c2)c(Br)c1 |
| n/a | 188 | n/a | n/a | -0.014 | C=CC(=O)OCCCCCC |
| 120.5 | n/a | 1 | n/a | n/a | CC1Cc2ccccc2/[N+]1=C\C=C1/N(C)c2ccccc2C1(C)C.[Cl-] (stereo partly drawn) |
| 206 | n/a | 4.33 | -7.991 | n/a | COc1ccc(N=Nc2c(O)ccc3ccccc23)c([N+](=O)[O-])c1 |
| 66 | n/a | n/a | -2.62 | n/a | CCCCCCCOC(=N)O |
| 165 | n/a | 4.2 | n/a | -7.161 | CCN(CCC(C)C)c1ccc2c(c1)Oc1cc(C)c(Nc3ccccc3)cc1C21OC(=O)c2ccccc21 (stereo not drawn) |
| -59 | n/a | 2.2 | -2.082 | -2.502 | CCCCOCc1ccc(O)c(OC)c1 |
| n/a | n/a | 4.9 | -4.271 | -0.842 | C=CC(C)CCCC(C)(C)OC(C)=O (stereo not drawn) |
| n/a | n/a | 3.4 | -4.418 | n/a | C[C@]12CC=C3C4=C(CC[C@H]3[C@@H]1CCC2=O)CC1(CC4)OCCO1 |
| n/a | n/a | 1.1 | -1.089 | n/a | NNCCc1ccccc1 |
| n/a | n/a | n/a | -7.046 | 0.803 | C[SiH](O[Si](C)(C)C)O[Si](C)(C)C |
| n/a | n/a | 3.682 | -8.221 | n/a | Cc1cc(O)c(C(C)C)cc1C1(c2cc(C(C)C)c(O)cc2C)OC(=O)c2ccccc21 |

Extract of 3 entries:

| structure (SMILES) | mp (°C) | BP (°C) | log Kow | water solubility (log10 mol/L) | log VP (log10 mmHg) |
|---|---|---|---|---|---|
| C[SiH](O[Si](C)(C)C)O[Si](C)(C)C | n/a | n/a | n/a | -7.046 | 0.803 |
| Brc1ccc(Oc2ccc(Br)c(Br)c2)c(Br)c1 | 63 | n/a | n/a | -7.431 | -6.035 |
| CC(=O)OCC1CCC=C(CCC=C(C)C)C1 (stereo not drawn) | n/a | n/a | 5.65 | -4.976 | -3.348 |